Test results: patent US9499523B2, “Phosphatidylinositol 3-kinase inhibitors” (Gilead Sciences, Inc., priority 2014, dated 2016)
pIC50: −log10 of the molar value.

The chains behind the UniProt entries cited, without tags or fusion partners. Where a name states a change or a piece, a line headed by the entry shows the natural chain unless it says otherwise.
UniProt O00329: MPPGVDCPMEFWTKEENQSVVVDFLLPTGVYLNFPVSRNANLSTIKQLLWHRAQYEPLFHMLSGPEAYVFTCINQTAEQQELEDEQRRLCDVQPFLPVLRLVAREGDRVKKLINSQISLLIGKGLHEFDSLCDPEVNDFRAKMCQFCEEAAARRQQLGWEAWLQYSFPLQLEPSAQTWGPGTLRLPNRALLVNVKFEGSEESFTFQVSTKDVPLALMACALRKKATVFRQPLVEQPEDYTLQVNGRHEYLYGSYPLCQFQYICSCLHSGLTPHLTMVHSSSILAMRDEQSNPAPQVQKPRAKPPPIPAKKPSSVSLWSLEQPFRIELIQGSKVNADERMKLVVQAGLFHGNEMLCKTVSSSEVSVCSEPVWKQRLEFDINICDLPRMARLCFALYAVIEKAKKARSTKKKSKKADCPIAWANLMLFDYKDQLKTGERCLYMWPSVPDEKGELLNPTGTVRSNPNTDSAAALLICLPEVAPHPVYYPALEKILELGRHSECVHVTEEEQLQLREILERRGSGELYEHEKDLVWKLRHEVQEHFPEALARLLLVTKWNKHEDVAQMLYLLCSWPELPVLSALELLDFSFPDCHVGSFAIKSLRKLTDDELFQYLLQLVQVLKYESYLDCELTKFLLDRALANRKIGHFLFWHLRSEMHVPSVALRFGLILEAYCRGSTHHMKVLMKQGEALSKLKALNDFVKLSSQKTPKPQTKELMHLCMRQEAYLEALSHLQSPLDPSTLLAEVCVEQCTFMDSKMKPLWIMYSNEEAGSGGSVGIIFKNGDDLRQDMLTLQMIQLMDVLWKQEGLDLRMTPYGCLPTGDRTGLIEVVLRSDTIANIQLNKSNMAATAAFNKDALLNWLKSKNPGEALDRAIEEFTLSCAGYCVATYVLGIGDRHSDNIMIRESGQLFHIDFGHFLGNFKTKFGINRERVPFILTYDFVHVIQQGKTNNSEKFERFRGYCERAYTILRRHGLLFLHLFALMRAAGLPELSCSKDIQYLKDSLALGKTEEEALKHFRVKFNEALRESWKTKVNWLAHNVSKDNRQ

Biological target: PI3Kδ (Homo sapiens (Human), UniProt O00329)
Assay: TR-FRET enzymatic assay of PI3K isoforms, PI3Kδ
Details: read-out: PI3Kδ IC50, 2×Km ATP, 30 minutes at 25° C.

pIC50 | Compound
7.59 | C[C@H](Nc1nc(N)nc(N)c1Cl)c1nc2c(F)ccc(Cl)c2c(=O)n1-c1cnc(N)cn1 [Compound 1, (S)-3-(5-aminopyrazin-2-yl)-5-chlor-2-(1-((2,6-diamino-5-chloropyrimidin-4-yl)amino)ethyl)-8-fluoroquinazolin-4(3H)-one]
7.52 | Nc1cnc(-n2c([C@@H](Nc3ncnc(N)c3Cl)C3CC3)nc3cccc(Cl)c3c2=O)cn1 [Compound 21, (S)-2-(((6-Amino-5-chloropyrimidin-4-yl)amino)(cyclopropyl)methyl)-3-(5-aminopyrazin-2-yl)-5-chloroquinazolin-4(3H)-one]
